From patent US8551509B2, “Skin agent for external use and cosmetic agent including ubiquinone derivative or salt thereof and method using the same” (Showa Denko K.K., priority 2006, dated 2013)

System: Normal human skin fibroblast cells NB1RGB
Experiment: Administration test to skin cells (concentration in cells by HPLC)
Conditions: NB1RGB cells cultured 3 days in medium containing the substance; estimated from the volume of recovered cells

tetrapotassium ubiquinol-1,4-diphosphate
Concentration in cells after culture: Ubiquinol: 78 µg/mL | Concentration in cells after culture: Ubiquinol-1,4-diphosphoric acid: 241 µg/mL | Concentration in cells after culture: Ubiquinone: 14 µg/mL
